One experiment has as its target T1, human SHIP1 Ptase‐C2 (Homo sapiens, UniProt Q92835).
T1 sequence (Q92835 395-898): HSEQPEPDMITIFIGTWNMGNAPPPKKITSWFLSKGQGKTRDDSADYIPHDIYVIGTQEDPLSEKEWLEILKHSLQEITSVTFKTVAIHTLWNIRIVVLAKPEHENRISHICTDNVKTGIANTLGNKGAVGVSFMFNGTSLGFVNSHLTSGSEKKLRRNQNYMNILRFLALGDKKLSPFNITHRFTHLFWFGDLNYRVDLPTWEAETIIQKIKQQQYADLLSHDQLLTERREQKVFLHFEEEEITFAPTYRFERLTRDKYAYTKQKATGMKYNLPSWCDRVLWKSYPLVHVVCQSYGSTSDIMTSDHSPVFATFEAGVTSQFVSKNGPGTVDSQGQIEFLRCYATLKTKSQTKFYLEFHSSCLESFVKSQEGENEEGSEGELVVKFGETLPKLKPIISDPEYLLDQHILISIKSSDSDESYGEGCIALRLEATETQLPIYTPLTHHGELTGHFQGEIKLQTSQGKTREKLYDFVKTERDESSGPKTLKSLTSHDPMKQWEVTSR
In words: Malachite green enzyme assay, hSHIP1^395‐898 Ptase‐C2, substrate PtdIns. The settings on record: SHIP1 versus SHIP2 Ptase‐C2. It is filed as biochemical.

Protein sequences, listed by entry. Tags and fused reporters are not part of them. Residues count along the entry.
UniProt O15357, 420-878: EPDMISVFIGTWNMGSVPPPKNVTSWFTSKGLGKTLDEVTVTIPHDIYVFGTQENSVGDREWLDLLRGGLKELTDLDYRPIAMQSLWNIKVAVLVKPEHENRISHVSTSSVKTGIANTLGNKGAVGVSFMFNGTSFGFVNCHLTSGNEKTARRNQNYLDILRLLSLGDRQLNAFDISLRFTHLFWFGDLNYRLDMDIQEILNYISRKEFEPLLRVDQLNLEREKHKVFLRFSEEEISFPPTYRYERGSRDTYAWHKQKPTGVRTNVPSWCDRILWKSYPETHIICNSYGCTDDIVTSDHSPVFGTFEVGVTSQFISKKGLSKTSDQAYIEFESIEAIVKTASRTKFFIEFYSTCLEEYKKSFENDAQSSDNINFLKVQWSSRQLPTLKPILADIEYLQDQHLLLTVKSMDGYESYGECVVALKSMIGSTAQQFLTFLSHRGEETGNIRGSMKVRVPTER

The test system of the next experiment is pAKT/tAKT in THP1 cells. In words: AKT signaling assay in THP1 cells. Conditions: 90 min treatment, geometric mean. The class given is cell-based, human.
A further experiment has as its target human SHIP2 Ptase‐C2 (Homo sapiens, UniProt O15357). In words: biochemical.

Four compounds from PMC10655782 (Alzheimer's & Dementia : Translational Research & Clinical …, 2023) can be followed below.

In general, IC50 refers to the concentration that inhibits the measured activity by half. A high value points to a need for much substance.

A value given as a limit tells only on which side of the number the result lay.

On human SHIP1 Ptase‐C2, `CC(=O)C1=C(C)Nc2sc(C(=O)c3ccc(Cl)c(Cl)c3)c(N)c2C1c1cccnc1` (centres unmarked) [Compound 2] registered a Selectivity above 16. Moreover, the “Signaling IC50 (reduction in the ratio pAKT/tAKT)” value with pAKT/tAKT in THP1 cells was 12.4 μM. At human SHIP2 Ptase‐C2, the IC50 is above 300 µM.

`CC(C)c1ccc(C2C(C#N)=C3N=C(N)c4ccccc4N3C3=C2C(=O)CCC3)cc1` (centres unmarked) [Compound 3]: on human SHIP1 Ptase‐C2, the Selectivity is listed as above 33. Moreover, the “Signaling IC50 (reduction in the ratio pAKT/tAKT)” value in the experiment with pAKT/tAKT in THP1 cells amounted to 5.60 μM. At human SHIP2 Ptase‐C2, this compound showed a half-maximal inhibitory concentration (IC50) above 900 µM.

As to `CC(C)CCC[C@@H](C)[C@H]1CC[C@H]2[C@@H]3CCC4C[C@H](N)CC[C@]4(C)[C@H]3CC[C@]12C` (stereo partly drawn) [Compound 13, 3α‐aminocholestane, reference compound], at human SHIP1 Ptase‐C2, the Selectivity is on record as above 4. This compound also came in with an IC50 against human SHIP2 Ptase‐C2 above 900 µM.

`Clc1ccc(COc2cncc(-c3cnn(C4CCNCC4)c3)c2)c(Cl)c1` [Compound 23, 3‐((2,4‐Dichlorobenzyl)oxy)‐5‐(1‐(piperidin‐4‐yl)‐1H‐pyrazol‐4‐yl)pyridine, reference compound] yielded a Selectivity at human SHIP1 Ptase‐C2 of 1. The “Signaling IC50 (reduction in the ratio pAKT/tAKT)” value in the experiment on pAKT/tAKT in THP1 cells is recorded as 6.52 μM. For the same compound, the IC50 on human SHIP2 Ptase‐C2 worked out at 252 µM.
